{"source": "patent US10098870B2", "about": "(JENKEM TECHNOLOGY CO., LTD. (BEIJING), priority 2013, dated 2018)", "key": {"[1]": {"assay": "Body weight, survival and tolerance of mice bearing H460 (Example 8)", "conditions": "15 mg/kg i.v. BIW×3W, mean ± SE"}, "[2]": {"assay": "Body weight, survival and tolerance of mice bearing Calu-6 (Example 9);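 also: nude mice bearing Calu-6 tumours, established by implanting 5.0×10^6 cells at the right shoulder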", "conditions": "15 mg/kg i.v. BIW×4W, mean ± SE"}}, "data": [{"smiles": "CC(=O)O[C@H]1C(=O)[C@@]2(C)[C@H]([C@H](OC(=O)c3ccccc3)[C@]3(O)C[C@H](OC(=O)[C@H](O)[C@@H](NC(=O)c4ccccc4)c4ccccc4)C(C)=C1C3(C)C)[C@]1(OC(C)=O)CO[C@@H]1C[C@@H]2O", "note": "[Paclitaxel, reference compound]", "values": [{"measurement": "Body weight of animal", "setting": "[1]; day 26 after inoculation", "value": "18.4 ± 0.3", "unit": "g"}, {"measurement": "Body weight of animal", "setting": "[1]; day 29 after inoculation", "value": "18.7 ± 0.4", "unit": "g"}, {"measurement": "Body weight of animal", "setting": "[2]; day 14 after inoculation", "value": "20.7 ± 0.2", "unit": "g"}, {"measurement": "Body weight of animal", "setting": "[2]; day 42 after inoculation", "value": "20.7 ± 0.4", "unit": "g"}]}]}
